From ChEMBL document CHEMBL1671744 (Antimicrob Agents Chemother, 2010)
Converted amounts (≈) assume the structure as drawn.

What was measured:
Escherichia coli = assay: Antimicrobial activity against Escherichia coli; type: functional
Staphylococcus aureus = assay: Antimicrobial activity against Staphylococcus aureus; type: functional

Work on `CC[C@H](C)[C@H](NC(=O)CN)C(=O)NCC(=O)N[C@@H](C)C(=O)N[C@H](C(=O)N[C@@H](CC(C)C)C(=O)N[C@@H](CCCCN)C(=O)N[C@H](C(=O)N[C@@H](CC(C)C)C(=O)N[C@H](C(=O)N[C@H](C(=O)NCC(=O)N[C@@H](CC(C)C)C(=O)N1CCC[C@H]1C(=O)N[C@@H](C)C(=O)N[C@@H](CC(C)C)C(=O)N[C@H](C(=O)N[C@@H](CO)C(=O)N[C@@H](Cc1c[nH]c2ccccc12)C(=O)N[C@H](C(=O)N[C@@H](CCCCN)C(=O)N[C@@H](CCCNC(=N)N)C(=O)N[C@@H](CCCCN)C(=O)N[C@@H](CCCNC(=N)N)C(=O)N[C@@H](CCC(N)=O)C(=O)N[C@@H](CCC(N)=O)C(N)=O)[C@@H](C)CC)[C@@H](C)CC)[C@@H](C)O)[C@@H](C)O)C(C)C)C(C)C` [MELITTIN] yielded an MIC (Escherichia coli) of 2 µM (≈ 5.69 µg/mL) and an MIC (Staphylococcus aureus) of 0.5 µM (≈ 1.42 µg/mL).
